Experimental data: patent US12528818B2, “Compositions and methods for inhibition of RAS” (Leidos Biomedical Research, Inc., priority 2021, dated 2026)

Legend:
[1] = target: GppNHp-loaded KRAS4b (amino acids 1-169) G12C/C118S protein (Homo sapiens, UniProt P01116, C118S/G12C); experiment: Covalent cysteine 12 modification by MALDI-TOF MS, GppNHp-loaded KRAS G12C; assay type: biochemical; conditions: 15 minutes reaction time
[2] = target: GDP-loaded KRAS4b (amino acids 1-169) G12C/C118S protein (Homo sapiens, UniProt P01116, C118S/G12C); experiment: Covalent cysteine 12 modification by MALDI-TOF MS, GDP-loaded KRAS G12C; assay type: biochemical; conditions: 15 minutes reaction time
[3] = target: Avi-KRAS G12C (1-169) GppNHp/RAF1 RBD-3xFLAG (52-151) (Homo sapiens, UniProt P01116, G12C); experiment: biochemical; conditions: Raf1-GppNHp-KRAS G12C disruption, Raf1 RBD-KRAS G12C-GppNHp disruption assay IC50
[4] = compound 95 or later using 1 μM proteins
[5] = compounds 94 or before using 5 μM proteins

SMILES	GppNHp-KRAS G12C percent of modification [1, 4]	GDP-KRAS G12C percent of modification [2, 4]	IC50 [3] [nM]	GppNHp-KRAS G12C percent of modification [1, 5]	GDP-KRAS G12C percent of modification [2, 5]
Nc1nc2c(-c3c(Cl)cc4c(N5CCN(C(=O)CCl)CC5)ncnc4c3O)ccc(F)c2s1 [Compound 16]			5000 to 20000	B (50≤percent of modification <70%)	A (percent of modification ≥70%)
C=CC(=O)N1CCN(c2nc(OC[C@@H]3CCCN3C)nc3c(F)c(-c4ccc(F)c5sc(N)nc45)c(C4CCC4)cc23)CC1 [Compound 142]	D (percent of modification <10%)	D (percent of modification <10%)	> 20000		
C=CC(=O)N1CCN(c2nc(OC[C@@H]3CCCN3C)nc3c(F)c(-c4ccc(F)c5sc(N)nc45)ncc23)CC1 [Compound 33, (S)-1-(4-(7-(2-amino-7-fluorobenzo[d]thiazol-4-yl)-8-fluoro-2-((1-methylpyrrolidin-2-yl)methoxy)pyrido[4,3-d]pyrimidin-4-yl)piperazin-1-yl)prop-2-en-1-one]			500 to 5000	C (10%≤percent of modification <50%)	A (percent of modification ≥70%)
CN1CCC[C@H]1COc1nc(NC2CCN(C#N)CC2)c2cc(Cl)c(-c3ccc(F)c4sc(N)nc34)c(F)c2n1 [Compound 55]			500 to 5000	C (10%≤percent of modification <50%)	B (50≤percent of modification <70%)
C=CC(=O)N1CC[C@@H]2[C@H]1CN2c1nc(OC[C@@H]2C[C@@H](F)CN2C)nc2c(F)c(-c3ccc(F)c4sc(N)nc34)c(Cl)cc12 [Compound 89]			500 to 5000	C (10%≤percent of modification <50%)	A (percent of modification ≥70%)
CC#CC(=O)N1CCN(c2nc(OC[C@@H]3CC(F)(F)CN3C)nc3c(F)c(-c4ccc(F)c5sc(N)nc45)c(C(F)(F)F)cc23)CC1 [Compound 132]	D (percent of modification <10%)	C (10%≤percent of modification <50%)	> 20000		
C=CC(=O)N1CCN(c2nc(OC[C@@H]3CCCN3C)nc3c(F)c(-c4ccc(F)c5sc(N)nc45)c(C)cc23)CC1 [Compound 216]	D (percent of modification <10%)	A (percent of modification ≥70%)	500 to 5000		
C=CC(=O)N1CC(Nc2nc(OCC3CCN3C)nc3c(F)c(-c4ccc(F)c5sc(N)nc45)c(Cl)cc23)C1 (stereo not drawn) [Compound 83]			> 20000	D (percent of modification <10%)	B (50≤percent of modification <70%)
C=CC(=O)N1CC[C@@H]2[C@H]1CN2c1nc(OCC23CCCN2CCC3)nc2c(F)c(-c3ccc(F)c4sc(N)nc34)c(-c3ccoc3)cc12 [Compound 121]	C (10%≤percent of modification <50%)	A (percent of modification ≥70%)	500 to 5000		
C=CC(=O)N1CC(N(C)c2nc(OC[C@@H]3CC(F)(F)CN3C)nc3c(F)c(-c4ccc(F)c5sc(N)nc45)c(C(F)(F)F)cc23)C1 [Compound 181]	D (percent of modification <10%)	B (50≤percent of modification <70%)	500 to 5000		
C=CC(=O)N1CC(Nc2nc(OC[C@@H]3CCCN3C)nc3c(F)c(-c4ccc(F)c5nc(N)sc45)c(Cl)cc23)C1 [Compound 90]			> 20000	D (percent of modification <10%)	A (percent of modification ≥70%)
C=CC(=O)N1CC(Nc2nc(OC[C@@H]3C[C@@H](OC(F)F)CN3C)nc3c(F)c(-c4ccc(F)c5sc(N)nc45)c(Cl)cc23)C1 [Compound 94]			500 to 5000	C (10%≤percent of modification <50%)	B (50≤percent of modification <70%)
C=CC(=O)N1C[C@H](C)N(c2nc(OCC3(CN4CCOCC4)CC3)nc3c(F)c(-c4ccc(F)c5sc(N)nc45)c(C(F)(F)F)cc23)C[C@H]1C [Compound 285]	D (percent of modification <10%)	B (50≤percent of modification <70%)	500 to 5000		
C=CC(=O)N1CC(N(C)c2nc(OC[C@@H]3CCCN3C)nc3c(F)c(-c4ccc(F)c5sc(N)nc45)c(Cl)cc23)C1 [Compound 73]			5000 to 20000	C (10%≤percent of modification <50%)	A (percent of modification ≥70%)

The remaining lines, values ahead:

GppNHp-KRAS G12C percent of modification [1, 4]	GDP-KRAS G12C percent of modification [2, 4]	IC50 [3] [nM]	GppNHp-KRAS G12C percent of modification [1, 5]	GDP-KRAS G12C percent of modification [2, 5]	SMILES
D (percent of modification <10%)	D (percent of modification <10%)	500 to 5000			C=CC(=O)N1CC[C@@H](N(C)c2nc(OCC34CCCN3CCC4)nc3c(F)c(-c4ccc(F)c5sc(N)nc45)c(C(F)(F)F)cc23)C1 (atropisomer, axis not shown) [Compound 221]
B (50≤percent of modification <70%)	A (percent of modification ≥70%)	< 500			C=CC(=O)N1C[C@H](C)N(c2nc(OCC34CCCN3CCC4)nc3c(F)c(-c4ccc(F)c5sc(N)nc45)c(C(F)(F)F)cc23)C[C@H]1C [Compound 281]
C (10%≤percent of modification <50%)	C (10%≤percent of modification <50%)	< 500			C=CC(=O)N1C[C@@H](Nc2nc(OCC34CCCN3CCC4)nc3c(F)c(-c4ccc(F)c5sc(N)nc45)c(Cl)cc23)[C@H]1C [Compound 197]
B (50≤percent of modification <70%)	A (percent of modification ≥70%)	< 500			C=CC(=O)N1C[C@H](C)N(c2nc(OC[C@]34CCCN3C[C@H](OC)C4)nc3c(F)c(-c4ccc(F)c5sc(N)nc45)c(C(F)(F)F)cc23)C[C@H]1C [Compound 269]
D (percent of modification <10%)	A (percent of modification ≥70%)	500 to 5000			C=CC(=O)N1C[C@@H](N(C)c2nc(OC[C@@]34CCCN3C[C@H](F)C4)nc3c(F)c(-c4ccc(F)c5sc(N)nc45)c(C(F)(F)F)cc23)C(C)(C)C1 [Compound 283]
A (percent of modification ≥70%)	A (percent of modification ≥70%)	< 500			C=CC(=O)N1CC[C@@H](N(CC)c2nc(OC[C@@]34CCCN3C[C@H](F)C4)nc3c(F)c(-c4ccc(F)c5sc(N)nc45)c(C(F)(F)F)cc23)C1 [Compound 257]
		500 to 5000	C (10%≤percent of modification <50%)	A (percent of modification ≥70%)	C=CC(=O)NCCNc1nc(OC[C@@H]2CCCN2C)nc2c(F)c(-c3ccc(F)c4sc(N)nc34)c(Cl)cc12 [Compound 37]
		< 500	A (percent of modification ≥70%)	A (percent of modification ≥70%)	C=CC(=O)N1CC(Nc2nc(OC[C@@H]3CCCN3C)nc3c(F)c(-c4ccc(F)c5sc(N)nc45)c(C(F)(F)F)cc23)C1 [Compound 87]
C (10%≤percent of modification <50%)	B (50≤percent of modification <70%)	500 to 5000			C=CC(=O)N1CC(N(C)c2nc(OC[C@]34CCCN3C[C@H](F)C4)nc3c(F)c(-c4ccc(F)c5sc(N)nc45)c(Cl)cc23)C1 [Compound 169]
		< 500	A (percent of modification ≥70%)	A (percent of modification ≥70%)	C#CC(=O)N1CC(Nc2nc(OC[C@@H]3CCCN3C)nc3c(F)c(-c4ccc(F)c5sc(N)nc45)c(Cl)cc23)C1 [Compound 81]
C (10%≤percent of modification <50%)	C (10%≤percent of modification <50%)	500 to 5000			C=CC(=O)N1CC[C@@H](N(C)c2nc(OC[C@@H]3CC4(CC4)CN3C)nc3c(F)c(-c4ccc(F)c5sc(N)nc45)c(C(F)(F)F)cc23)C1 (atropisomer, axis not shown) [Compound 256]
C (10%≤percent of modification <50%)	A (percent of modification ≥70%)	500 to 5000			C=CC(=O)N1CC(N(c2nc(OCC34CCCN3CCC4)nc3c(F)c(-c4ccc(F)c5sc(N)nc45)c(C(F)(F)F)cc23)C2CC2)C1 [Compound 152]
		< 500	A (percent of modification ≥70%)	A (percent of modification ≥70%)	C=CC(=O)N1CC(Nc2nc(OCC34CCCN3CCC4)nc3c(F)c(-c4ccc(F)c5sc(N)nc45)c(C(F)(F)F)cc23)C1 [Compound 79]
		< 500	A (percent of modification ≥70%)	A (percent of modification ≥70%)	C=CC(=O)N1CC(N(C)c2nc(OCC34CCCN3CCC4)nc3c(F)c(-c4ccc(F)c5sc(N)nc45)c(Cl)cc23)C1 [Compound 84, 1-(3-((7-(2-amino-7-fluorobenzo[d]thiazol-4-yl)-6-chloro-8-fluoro-2-((tetrahydro-1H-pyrrolizin-7a(5H)-yl)methoxy)quinazolin-4-yl)(methyl)amino)azetidin-1-yl)prop-2-en-1-one]
B (50≤percent of modification <70%)	A (percent of modification ≥70%)	< 500			C=CC(=O)N1C[C@H](C)N(c2nc(OC[C@@]34CCCN3C[C@H](F)C4)nc3c(F)c(-c4ccc(F)c5sc(N)nc45)c(C(F)F)cc23)C[C@H]1C [Compound 291]
